Assay results from PubChem BioAssay AID2520 (Sanford-Burnham Center for Chemical Genomics, 2010).
The list shows a part of the results, in another mix than the full data. The source made the active and inactive calls.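 How the source made its calls: active means activation more than six SD over the plate average, tested at 20 µM; inactive means the rest.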

By UniProt entry, the sequences of proteins in these tests, tags left out.
UniProt P35414, whole entry: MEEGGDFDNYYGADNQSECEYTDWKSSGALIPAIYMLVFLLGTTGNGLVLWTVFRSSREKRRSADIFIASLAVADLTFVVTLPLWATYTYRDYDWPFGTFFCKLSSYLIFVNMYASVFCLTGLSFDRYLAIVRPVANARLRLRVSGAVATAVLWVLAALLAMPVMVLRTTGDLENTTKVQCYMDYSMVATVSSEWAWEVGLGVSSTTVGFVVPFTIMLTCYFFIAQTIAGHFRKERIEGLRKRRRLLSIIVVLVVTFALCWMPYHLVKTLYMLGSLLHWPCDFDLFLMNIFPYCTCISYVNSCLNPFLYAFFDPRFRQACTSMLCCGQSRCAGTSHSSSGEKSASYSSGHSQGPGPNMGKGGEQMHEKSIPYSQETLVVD

molecular target: Apelin receptor (Homo sapiens) (UniProt P35414); experiment: agonists of human apelin receptor APJ, primary screen, CHO-K1 cells, PathHunter beta-arrestin, luminescence (AID 2520); conditions: at 20 µM, active compounds read high, 0% DMSO wells, 100% apelin;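 further: 0% = DMSO alone and 100% = apelin-13 at 10 nM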
Procedure, shortened: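 Assay system: CHO-K1 APJ beta-arrestin complementation cell line / Compound: single test compound dose, 20 µM final, 1% DMSO / Times: overnight seeding, 90 min compound at 25 °C, 1 h detection / Technique: beta-gal luminescence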

| Structure (SMILES) | activation |
| --- | --- |
| CCN1CCC(Nc2cccc(F)c2)CC1 | inactive: -3.13% |
| CN(C)c1ccc(C(=O)NCC2(N3CCCCC3)CCCCC2)cc1 | inactive: -3.39% |
| O=C(NCC1(N2CCCCC2)CCCCC1)c1ccco1 | inactive: -3.07% |
| COc1cc(OC)cc(C(=O)NCC2(N3CCCCC3)CCCCC2)c1 | inactive: -3.47% |
| Fc1ccccc1NC1CCN(Cc2ccccc2)CC1 | inactive: -2.67% |
| Cc1ccc(C(=O)NCC2(N3CCCCC3)CCCCC2)o1 | inactive: 5.41% |
| COc1cccc(C(=O)N(c2cc(C)cc(C)c2)C2CCN(C(=O)OC(C)(C)C)CC2)c1 | inactive: -1.61% |
| COc1cc(OC)cc(C(=O)NCC2(N3CCOCC3)CCCCC2)c1 | inactive: -0.0893% |
| CCC(CO)(C(=O)OC1CN2CCC1CC2)c1ccccc1 (configuration not stated) | inactive: 4.27% |
| CN1CCC(Nc2ccc(Cl)cc2)CC1 | inactive: 0.513% |
| CCCOc1ccc(C)cc1CN(CCCl)CCCl | inactive: -1.53% |
| CN1CCC(Nc2ccc(F)c(Cl)c2)CC1 | inactive: -3.95% |
| CCOc1ncccc1C(=O)NCC1(N2CCOCC2)CCCCC1 | inactive: -4.85% |
| O=C(O)C1(Nc2ccccc2)CCN(Cc2ccccc2)CC1 | inactive: 1.07% |
| CC(C)(C)OC(=O)N1CCC(Nc2ccccc2)CC1 | inactive: -2.24% |
| CCCOc1ccc(C(=O)NCC2(N(C)C)CCCCC2)cc1 | inactive: -2.86% |
| CCOC(=O)N1CCC(Nc2ccc(C)cc2)CC1 | inactive: -4.45% |
| N/C(=N\O)c1c(N)no[n+]1[O-] | inactive: -4.34% |
| O=C(OC1CN2CCC1CC2)C1c2ccccc2C=Cc2ccccc21 (configuration not stated) | inactive: -1.88% |
| CCc1cc(C(=O)NCC2(N3CCCCC3)CCCCC2)sc1C | inactive: -1.86% |
| COc1cc(C(=O)NCC2(N3CCOCC3)CCCCC2)cc(OC)c1C | inactive: -2.9% |
| O=C(NCC1(N2CCOCC2)CCCCC1)c1cc(Br)ccc1Cl | inactive: -5.03% |
| COc1ccc(C(=O)NCC2(N3CCOCC3)CCCCC2)cc1OC | inactive: -3.93% |

| Structure (SMILES) | activation |
| --- | --- |
| CN(C)C1(CNC(=O)c2cccc(C#N)c2)CCCCC1 | inactive: -2.36% |
| CCCN1CCC(Nc2cc(OC)cc(OC)c2)CC1 | inactive: -0.314% |
| c1ccc(CN2CCC(Nc3ccccc3)CC2)cc1 | inactive: -2.02% |
| N#Cc1ccc(C(=O)NCC2(N3CCCCC3)CCCCC2)cc1 | inactive: -4.87% |
| CC(C)(C)OC(=O)N1CCC(N(C(=O)c2ccccc2)c2ccc(Cl)cc2)CC1 | inactive: -0.488% |
| O=C(NCC1(N2CCCCC2)CCCCC1)c1cccc(C(F)(F)F)c1 | inactive: -2.28% |
| O=C(NCC1(N2CCOCC2)CCCCC1)c1cc(=O)[nH]c2ccccc12 | inactive: 1.15% |
| COc1cc(C(=O)NCC2(N3CCCCC3)CCCCC2)ccc1OC(F)F | inactive: -2% |
| COc1ccc(NC2CCN(C(=O)OC(C)(C)C)CC2)cc1 | inactive: -3.33% |
| CC(C)c1ccc(C(=O)NCC2(N3CCOCC3)CCCCC2)cc1 | inactive: 3.25% |
| CN1CCN(CCOC(=O)C(O)(c2ccccc2)c2ccccc2)CC1 | inactive: -0.635% |
| O=C(NCC1(N2CCCCC2)CCCCC1)c1ccc(OC(F)F)cc1 | inactive: -5.72% |
| N#CC1(Nc2ccccc2)CCN(CCc2ccccc2)CC1 | inactive: -4.06% |
| CCN1CCC(Nc2ccc(Cl)cc2)CC1 | inactive: 3.04% |
| O=C(NCC1(N2CCCCC2)CCCCC1)c1cccc([N+](=O)[O-])c1 | inactive: 0.331% |
| CSc1ccc(C(=O)NCC2(N3CCOCC3)CCCCC2)cc1 | inactive: 3.93% |
| O=C(NCC1(N2CCCCC2)CCCCC1)c1cncc(Br)c1 | inactive: -4.49% |
| CN1CCC(Nc2cccc(F)c2)CC1 | inactive: -3.34% |
| CC(C)c1ccc(NC2CCN(C(=O)OC(C)(C)C)CC2)cc1 | inactive: 1.37% |
| CN(C)c1cccc(C(=O)NCC2(N3CCCCC3)CCCCC2)c1 | inactive: -2.54% |
| COc1ccc(CN(CCCl)CCCl)cc1Cl | inactive: -3.5% |
| O=C(NCC1(N2CCOCC2)CCCCC1)c1cc(F)c(F)cc1Cl | inactive: -1.31% |
| COc1cc(OC)c(C(=O)NCC2(N(C)C)CCCCC2)cc1OC | inactive: -3.06% |

| Structure (SMILES) | activation |
| --- | --- |
| Cc1cc(C)cc(N(C(=O)c2ccccc2)C2CCN(C(=O)OC(C)(C)C)CC2)c1 | inactive: 2.02% |
| O=C(NCC1(N2CCCCC2)CCCCC1)c1ccc(Cl)nc1 | inactive: 0.896% |
| O=C(NCC1(N2CCOCC2)CCCCC1)c1cc2ccccc2o1 | inactive: -2.03% |
| COc1ccc(Cl)cc1C(=O)NCC1(N2CCOCC2)CCCCC1 | inactive: -1.73% |
| O=C(OC1CN2CCC1CC2)C1c2ccccc2Oc2ccccc21 (configuration not stated) | inactive: -2.82% |
| O=C(NCC1(N2CCCCC2)CCCCC1)c1ccc(Cl)s1 | inactive: -3.69% |
| N#CC1(Nc2ccccc2)CCN(Cc2ccccc2)CC1 | inactive: -0.724% |
| CCOC(=O)N1CCC(Nc2ccc(OC)cc2)CC1 | inactive: -1.34% |
| COc1ccc(C(=O)NCC2(N3CCCCC3)CCCCC2)c(OC)c1OC | inactive: -4.08% |
| CC(C)(C)OC(=O)N1CCC(N(C(=O)c2ccccc2)c2ccc(F)cc2)CC1 | inactive: -3.84% |
| COc1ccc(C(=O)NCC2(N3CCCCC3)CCCCC2)cc1 | inactive: 2.77% |
| O=C(NCC1(N2CCCCC2)CCCCC1)c1cccs1 | inactive: -1.26% |
| O=C(NCC1(N2CCCCC2)CCCCC1)c1ccc(=O)[nH]c1 | inactive: 1.2% |
| CSc1ccccc1C(=O)NCC1(N2CCCCC2)CCCCC1 | inactive: -1.83% |
| Cc1ccc(OCC(C)C)c(CN(CCCl)CCCl)c1 | inactive: -2.6% |
| CCOC(=O)N1CCC(Nc2cccc(C)c2)CC1 | inactive: -0.934% |
| CCOc1ccc(C)cc1CN(CCCl)CCCl | inactive: -5.94% |
| CCOC(=O)N1CCC(Nc2ccc(F)cc2)CC1 | inactive: -0.399% |
| COc1ccc(NC2CCN(CCc3ccccc3)CC2)c(OC)c1 | inactive: -1.54% |
| O=C(NCC1(N2CCCCC2)CCCCC1)c1ccc(F)cc1 | inactive: -0.701% |
| CCCCOc1ccc(C(=O)NCC2(N3CCOCC3)CCCCC2)cc1 | inactive: 4.77% |
